B1: RAC-alpha serine/threonine-protein kinase (Homo sapiens), P31749 (parent)
chain: MSDVAIVKEGWLHKRGEYIKTWRPRYFLLKNDGTFIGYKERPQDVDQREAPLNNFSVAQCQLMKTERPRPNTFIIRCLQWTTVIERTFHVETPEEREEWTTAIQTVADGLKKQEEEEMDFRSGSPSDNSGAEEMEVSLAKPKHRVTMNEFEYLKLLGKGTFGKVILVKEKATGRYYAMKILKKEVIVAKDEVAHTLTENRVLQNSRHPFLTALKYSFQTHDRLCFVMEYANGGELFFHLSRERVFSEDRARFYGAEIVSALDYLHSEKNVVYRDLKLENLMLDKDGHIKITDFGLCKEGIKDGATMKTFCGTPEYLAPEVLEDNDYGRAVDWWGLGVVMYEMMCGRLPFYNQDHEKLFELILMEEIRFPRTLGPEAKSLLSGLLKKDPKQRLGGGSEDAKEIMQHRFFAGIVWQHVYEKKLSPPFKPQVTSETDTRYFDEEFTAQMITITPPDQDDSMECVDSERRPHFPQFSYSASGTA

Variants of: B1
Details: with setb1_human SETDB1

Variant | effect of a mutation on the interaction
E40K | increasing interaction
K179M | decreasing interaction

From IntAct's records for PubMed 17577629
